Assay results taken from PubChem BioAssay AID720700 (The Scripps Research Institute Molecular Screening Center, 2013).
Only a part is listed here, and it is no random draw. Some salts and complexes are drawn in separate pieces, as the source files them; their charges need not balance. Active and inactive are the calls of the source. Rule as the data show it: active = inhibition above about 9.5%; inactive = the rest.

Chains of the proteins cited; added tags and fusions are not shown.
UniProt P19174, whole entry: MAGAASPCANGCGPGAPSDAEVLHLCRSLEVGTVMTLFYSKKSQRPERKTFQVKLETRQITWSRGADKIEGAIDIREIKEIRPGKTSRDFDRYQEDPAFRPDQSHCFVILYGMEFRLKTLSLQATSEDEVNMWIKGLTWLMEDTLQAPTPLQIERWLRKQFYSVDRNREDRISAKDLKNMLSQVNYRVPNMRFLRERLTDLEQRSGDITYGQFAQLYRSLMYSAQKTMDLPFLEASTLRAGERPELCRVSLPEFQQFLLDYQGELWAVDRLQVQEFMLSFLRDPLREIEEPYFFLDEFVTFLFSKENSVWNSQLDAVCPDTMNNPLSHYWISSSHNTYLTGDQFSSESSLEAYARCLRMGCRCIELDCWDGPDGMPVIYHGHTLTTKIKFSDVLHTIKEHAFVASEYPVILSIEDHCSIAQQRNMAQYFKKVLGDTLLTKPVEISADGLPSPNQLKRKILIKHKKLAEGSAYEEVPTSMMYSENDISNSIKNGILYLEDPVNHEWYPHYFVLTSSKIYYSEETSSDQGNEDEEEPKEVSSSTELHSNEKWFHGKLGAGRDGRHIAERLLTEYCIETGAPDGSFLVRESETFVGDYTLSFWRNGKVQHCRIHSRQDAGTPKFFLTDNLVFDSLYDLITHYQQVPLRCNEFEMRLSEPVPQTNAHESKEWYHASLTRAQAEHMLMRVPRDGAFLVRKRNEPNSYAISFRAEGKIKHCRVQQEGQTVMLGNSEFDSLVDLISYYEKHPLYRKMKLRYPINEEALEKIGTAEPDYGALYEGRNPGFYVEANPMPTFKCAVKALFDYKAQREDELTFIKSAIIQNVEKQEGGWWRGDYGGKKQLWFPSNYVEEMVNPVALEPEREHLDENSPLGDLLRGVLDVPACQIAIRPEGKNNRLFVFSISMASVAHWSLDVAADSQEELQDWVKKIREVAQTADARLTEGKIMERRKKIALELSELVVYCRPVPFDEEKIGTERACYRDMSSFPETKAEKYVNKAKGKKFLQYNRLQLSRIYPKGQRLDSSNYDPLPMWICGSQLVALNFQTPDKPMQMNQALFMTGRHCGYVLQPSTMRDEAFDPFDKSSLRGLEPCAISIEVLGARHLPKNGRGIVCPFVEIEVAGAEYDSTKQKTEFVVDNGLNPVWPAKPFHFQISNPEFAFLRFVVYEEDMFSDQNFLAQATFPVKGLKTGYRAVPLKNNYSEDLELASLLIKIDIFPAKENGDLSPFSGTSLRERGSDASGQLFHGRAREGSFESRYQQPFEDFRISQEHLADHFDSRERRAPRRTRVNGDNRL

Target: 1-phosphatidylinositol 4,5-bisphosphate phosphodiesterase gamma-1 (Homo sapiens) (UniProt P19174)
Assay: blockers of human PLCG1 activity – biochemical, fluorescence, purified enzyme, primary screen (AID 720700)
Details: purified PLC-gamma1, fluorogenic substrate, at 12.2 µM, stronger effect = higher value

Compound | inhibition
COc1ccccc1OP(C)(=O)Nc1ccccc1Br (centres undefined) | inactive: 2.68%
CC(C)(C)c1ccc(OP(C)(=O)O)cc1 | inactive: 3.42%
CP(=O)(Nc1ccc(Cl)cc1)Oc1ccc(F)cc1 (centres undefined) | inactive: -5.64%
CN(C)C(=O)c1c([N+](=O)[O-])cc([N+](=O)[O-])cc1[N+](=O)[O-] | inactive: -0.61%
CCN(CC)CC(O)COC(=O)C(O)(c1ccccc1)C1CCCCC1 (centres undefined) | inactive: 0.36%
COc1ccc(OP(C)(=O)Nc2ccc(Br)cc2)cc1 (centres undefined) | inactive: 0.29%
COc1ccccc1OP(C)(=O)Nc1c(C)n(C)n(-c2ccccc2)c1=O (centres undefined) | inactive: -1.44%
O=C(OCCCN1CCCC1)C(O)(c1ccccc1)C1CCCCC1 (centres undefined) | inactive: -1.86%
CP(=O)(Oc1ccccc1)N1CCOC1=O (centres undefined) | inactive: 0.37%
CCc1ccc(OP(C)(=O)Nc2cccnc2)cc1 (centres undefined) | inactive: -1.03%
Nc1ccc2c(ccc3cccnc32)n1.O=[N+]([O-])c1cc([N+](=O)[O-])c(O)c([N+](=O)[O-])c1 | inactive: -180%
CCOC(=O)c1ccc(NP(C)(=O)Oc2ccc(Cl)cc2)cc1 (centres undefined) | inactive: 3.41%
CP(=O)(OC12CC3CC(CC(C3)C1)C2)OC12CC3CC(CC(C3)C1)C2 | inactive: 1.05%
CP(=O)(Nc1ccc(Cl)cc1Cl)Oc1ccccc1 (centres undefined) | inactive: -2.04%
CCCCCCCCCCCCCCCC1C[N+](C)(C)CCOP(C)(=O)O1 (centres undefined) | inactive: 0.88%
CP(=O)(OCCOc1ccccc1)OCCOc1ccccc1 | inactive: 5.11%
O=C1C(O)=C([N+](=O)[O-])C(=O)C(O)=C1[N+](=O)[O-] | inactive: 6.61%
Cc1cc(C)cc(OP(C)(=O)Nc2cccc(C(F)(F)F)c2)c1 (centres undefined) | inactive: 0.3%
COc1ccccc1OP(C)(=O)Nc1ccc(C)c(C)c1 (centres undefined) | inactive: 0.71%
COc1ccc(OP(C)(=O)Nc2ccccc2Br)cc1 (centres undefined) | inactive: -2.97%
Cc1c(NP(C)(=O)Oc2ccc(C(C)C)cc2)c(=O)n(-c2ccccc2)n1C (centres undefined) | inactive: -2.18%
O=[N+]([O-])c1cc([N+](=O)[O-])c(Nc2ccccn2)c([N+](=O)[O-])c1 | inactive: 3.72%
CP(=O)(Nc1ccccn1)Oc1ccccc1 (centres undefined) | inactive: -0.41%
COc1ccccc1OP(C)(=O)Nc1ccc(C)cc1C (centres undefined) | inactive: -0.47%
CCc1ccc(OP(C)(=O)O)cc1 | inactive: 1.25%

Compound | inhibition
COc1ccccc1OP(C)(=O)Nc1ccc(Br)cc1 (centres undefined) | inactive: 2.11%
COc1ccc(OP(C)(=O)Nc2ccccn2)cc1 (centres undefined) | inactive: -0.36%
CN(C)CCOC(=O)C(O)(c1ccccc1)C1CCCC1 (centres undefined) | inactive: 2.43%
O=C(OC1CN2CCC1CC2)c1ccc([N+](=O)[O-])cc1 (centres undefined) | inactive: 9.14%
O=C(OCCN1CCN(CCOCc2ccccc2)CC1)C(O)(c1ccccc1)c1ccccc1 | inactive: 2.13%
COc1ccc2c(c1O)-c1c(O)c(OC)cc3c1[C@H](C2)[N+](C)(C)CC3.O=[N+]([O-])c1cc([N+](=O)[O-])c([O-])c([N+](=O)[O-])c1[O-] | inactive: -224%
O=[N+]([O-])c1cc([N+](=O)[O-])c(Nc2ccc(Cl)cc2)c([N+](=O)[O-])c1 | inactive: 5.59%
CP(=O)(Nc1ccccc1F)Oc1ccccc1 (centres undefined) | inactive: -0.83%
CC(C)c1ccc(OP(C)(=O)Nc2ccc(SC(F)(F)F)cc2)cc1 (centres undefined) | inactive: 2.33%
Cc1c([N+](=O)[O-])cc([N+](=O)[O-])c(Br)c1[N+](=O)[O-] | inactive: 8.14%
CCN(CC)CCCOC(=O)C(O)(c1ccccc1)C1CCCCC1 (centres undefined) | inactive: 8.22%
CP(=O)(Nc1ccccc1)Oc1ccc(F)cc1 (centres undefined) | inactive: 1.6%
O=[N+]([O-])c1cc([N+](=O)[O-])c(OC2CCCCC2O)c([N+](=O)[O-])c1 (centres undefined) | inactive: 0.86%
CCCCCOc1ccc(NP(C)(=O)Oc2ccc(Cl)cc2Cl)cc1 (centres undefined) | inactive: 1.86%
CCN(CC)CCCNc1ccccc1[N+](=O)[O-].O=[N+]([O-])c1cc([N+](=O)[O-])c(O)c([N+](=O)[O-])c1 | inactive: 2.48%
CCOC(=O)c1ccc(NP(C)(=O)Oc2ccc(F)cc2)cc1 (centres undefined) | inactive: -0.25%
COc1ccc(OP(C)(=O)Nc2ccc(SC(F)(F)F)cc2)cc1 (centres undefined) | inactive: 0.32%
O=[N+]([O-])c1ccc(OP2(=O)COCCO2)cc1 (centres undefined) | inactive: 2.49%
Cc1cc(-c2cccc3ccccc23)c(C)cn1.O=[N+]([O-])c1cc([N+](=O)[O-])c(O)c([N+](=O)[O-])c1 | inactive: -2.08%
O=[N+]([O-])c1cc([N+](=O)[O-])c(NCC2CCS(=O)(=O)C2)c([N+](=O)[O-])c1 (centres undefined) | inactive: -0.5%
Cc1c(C(c2ccc3c(c2)OCO3)c2c(C)n(C)n(-c3ccccc3)c2=O)c(=O)n(-c2ccccc2)n1C.O=[N+]([O-])c1cc([N+](=O)[O-])c(O)c([N+](=O)[O-])c1 | inactive: -1.31%
COc1ccc(OP(C)(=O)Nc2cccc(Br)c2)cc1 (centres undefined) | inactive: 3.4%
CN(C)CCOC(=O)C(O)(c1ccccc1)C1CCCCC1 (centres undefined) | inactive: 4.91%
COc1ccc(NP(C)(=O)Oc2ccccc2OC)cc1 (centres undefined) | inactive: -0.55%
CP(=O)(Nc1ccc2c(c1)OCCO2)Oc1ccccc1 (centres undefined) | inactive: 2.9%

Compound | inhibition
Cc1ccccc1NP(C)(=O)Nc1ccccc1C | inactive: 1.71%
O=[N+]([O-])c1cc([N+](=O)[O-])c(C(F)(F)F)c([N+](=O)[O-])c1O | active: 11.8%
CP(=O)(Nc1ccc(SC(F)(F)F)cc1)Oc1ccc(F)cc1 (centres undefined) | inactive: 3.34%
CCOP(C)(=S)SCC(=O)NC(C)(CC)C(=O)O (centres undefined) | inactive: 2.85%
CCOP(=O)(CC)OCC | inactive: -2.44%
O=[N+]([O-])c1cc([N+](=O)[O-])c(-c2cnn(-c3ccccc3)c2)c([N+](=O)[O-])c1 | inactive: -1.61%
Cc1nc2ccc3ccccc3c2s1.O=[N+]([O-])c1cc([N+](=O)[O-])c(O)c([N+](=O)[O-])c1 | active: 11.3%
O=[N+]([O-])c1cc([N+](=O)[O-])c(-n2nnc3ccccc32)c([N+](=O)[O-])c1 | inactive: -2.28%
CN(Cc1cccnc1)C(=O)COc1ccc(Cl)c(Cl)c1.O=[N+]([O-])c1cc([N+](=O)[O-])c(O)c([N+](=O)[O-])c1 | inactive: 2.62%
CN1CCCCC1COC(=O)C1(O)c2ccccc2CCc2ccccc21 (centres undefined) | inactive: 3.36%
COc1ccccc1OP(C)(=O)Nc1c(C)cccc1C (centres undefined) | inactive: 0.79%
COc1ccc(-c2ccccn2)cc1.O=[N+]([O-])c1cc([N+](=O)[O-])c(O)c([N+](=O)[O-])c1 | inactive: -0.09%
CCCOc1ccc(NP(C)(=O)Oc2ccc(Cl)cc2)cc1 (centres undefined) | inactive: -0.9%
CP(=O)(Nc1ccc(SC(F)(F)F)cc1)Oc1ccccc1 (centres undefined) | inactive: -2.3%
O=[N+]([O-])c1cc([N+](=O)[O-])c(Nc2nnnn2CCO)c([N+](=O)[O-])c1 | inactive: 4.08%
CCOC(=O)C(CC)C1=NC(C)(C)Cc2ccccc21.O=[N+]([O-])c1cc([N+](=O)[O-])c(O)c([N+](=O)[O-])c1 (centres undefined) | inactive: 3.13%
CC1=NCCc2c1[nH]c1ccccc21.O=[N+]([O-])c1cc([N+](=O)[O-])c(O)c([N+](=O)[O-])c1 | inactive: -133%
O=C(O)c1cccc(Nc2c([N+](=O)[O-])cc([N+](=O)[O-])cc2[N+](=O)[O-])c1 | inactive: 7.69%
Cc1ccc(C)c(NP(C)(=O)Oc2ccccc2)c1 (centres undefined) | inactive: 1.84%
Cc1cc(C)cc(OP(C)(=O)Nc2ccccn2)c1 (centres undefined) | inactive: -0.36%
CP(=O)(Nc1cccc(Br)c1)Oc1ccccc1 (centres undefined) | inactive: 2.08%
COc1ccccc1OP(C)(=O)Nc1cccc(Br)c1 (centres undefined) | inactive: 2.26%
CCOC(=O)c1ccc(NP(C)(=O)Oc2cc(C)cc(C)c2)cc1 (centres undefined) | inactive: 4.31%
Cc1cc(C)cc(OP(C)(=O)Nc2ccc(C)cc2C)c1 (centres undefined) | inactive: 5.69%
COc1ccccc1-c1ccccn1.O=[N+]([O-])c1cc([N+](=O)[O-])c(O)c([N+](=O)[O-])c1 | inactive: 0.19%

Compound | inhibition
CCN(CC)CCCOC(=O)C(O)(c1ccccc1)c1ccccc1 | inactive: 3.89%
COc1ccccc1OP(C)(=O)Nc1ccc(C)cc1 (centres undefined) | inactive: 3.99%
Cc1ccc(NP(C)(=O)Oc2ccccc2)c(C)c1 (centres undefined) | inactive: -0.43%
CCOC(=O)c1ccc(NP(C)(=O)Oc2ccccc2)cc1 (centres undefined) | inactive: -0.55%
Cc1cc(C)cc(OP(C)(N)=O)c1 (centres undefined) | inactive: 2.16%
COc1ccccc1OP(C)(=O)Nc1cc(Cl)ccc1C (centres undefined) | inactive: 0.04%
COc1ccc(OP(C)(=O)Nc2cccc(F)c2)cc1 (centres undefined) | inactive: 1.38%
O=[N+]([O-])c1cc([N+](=O)[O-])c(Nc2cccnc2)c([N+](=O)[O-])c1 | inactive: 4.02%
O=[N+]([O-])c1ccc2c(c1)C=Nc1ccccc1O2 | inactive: 0.13%
CC(C)(C)c1ccc(OP(C)(=O)Nc2ccc(SC(F)(F)F)cc2)cc1 (centres undefined) | inactive: -0.07%
Cc1cccc(C)c1OP(C)(N)=O (centres undefined) | inactive: 3.33%
CP(=S)(Nn1cnnc1)Oc1ccccc1 (centres undefined) | inactive: 0.56%
CP(=O)(Nc1ccccc1Br)Oc1ccccc1 (centres undefined) | inactive: -1.69%
COc1ccccc1OP(C)(=O)Nc1ccccc1 (centres undefined) | inactive: 0.9%
O=[N+]([O-])c1cc([N+](=O)[O-])c(O)c([N+](=O)[O-])c1.c1ccc(Oc2ccncc2)cc1 | inactive: 2.3%
CCOC(=O)c1ccc(NP(C)(=O)Oc2ccc(OC)cc2)cc1 (centres undefined) | inactive: -0.52%
CCOP(C)(=S)SCC(=O)NC(C)C(=O)O (centres undefined) | inactive: -1.6%
CP(=O)(Nc1ccccn1)Oc1ccc(Cl)cc1 (centres undefined) | inactive: -1.47%
CP(=O)(Nc1ccc(SC(F)(F)F)cc1)Oc1ccc(Cl)cc1 (centres undefined) | inactive: -1.75%
Cc1cccc(C)c1OP(C)(=O)Nc1ccc(SC(F)(F)F)cc1 (centres undefined) | inactive: -10.1%
CP(=O)(Oc1ccccc1)OC(c1ccccc1)C(F)(F)F (centres undefined) | inactive: 0.64%
CP(=O)(NC(=O)Nc1ccccc1)Oc1ccccc1 (centres undefined) | inactive: 0.89%
CCc1ccc(OP(C)(=O)N2CCN(c3ccc([N+](=O)[O-])cc3)CC2)cc1 (centres undefined) | inactive: 2.48%
Cc1cc(C)cc(OP(C)(=O)Nc2ccc(SC(F)(F)F)cc2)c1 (centres undefined) | inactive: 0.43%
